# Apparent affinities of Ab-14 variants for a coronavirus HR2 peptide

Source: Li et al. 2023 (doi:10.1038/s41467-023-39022-2), MIT Lincoln Laboratory and A-Alpha Bio; data file from the FLAb repository.

Target peptide (SARS-CoV-2 spike, HR2 region): PDVDLGDISGINAS

Each scFv is VH, three GGGGS repeats, VL, as in the parent Ab-14, and differs from it in the CDRs of the light chain only.
VH: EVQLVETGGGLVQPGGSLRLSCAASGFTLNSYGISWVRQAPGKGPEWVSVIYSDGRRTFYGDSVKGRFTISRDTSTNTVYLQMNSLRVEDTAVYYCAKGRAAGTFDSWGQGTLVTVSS
VL: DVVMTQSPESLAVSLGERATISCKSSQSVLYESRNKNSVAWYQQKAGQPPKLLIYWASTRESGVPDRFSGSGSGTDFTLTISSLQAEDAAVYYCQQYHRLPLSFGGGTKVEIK

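The starting antibody came from a phage panning campaign against this peptide. These sequences belong to a second round, designed from the earlier measurements on random variants of the parent. Their group label is 14L_Ctrl (Ctrl: baseline library sampled from a position-specific scoring matrix, with some repeated check sequences). AlphaSeq pools MATa yeast showing the antibodies with MATalpha yeast showing the peptide. Pairs that bind mate more often; barcode pairs of the diploids are counted by sequencing. The ratio of observed to expected reads was calibrated, replicate by replicate, on BCL2-family standards whose Kd was known from biolayer interferometry. There are six technical replicates.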

Each variant is given by its three light chain CDRs, as the data file delimits them; those of the parent are KSSQSVLYESRNKNSVA, WASTRES, QQYHRLPLS.
Affinities are written as log10 Kd with Kd in nM; a lower number is a better binder.
Replicates are averaged; those with no signal do not enter the mean.
A pair that was not seen in that replicate is written "n.d."; this usually means weak binding, but a binder can also be missed.

CDR-L1,CDR-L2,CDR-L3,"replicates, log10 nM","log10 Kd (nM), mean",signal with controls
KPSQSVLYESENENSVA,WASTRES,QQYHRLPLS,n.d. n.d. 2.62 n.d. n.d. 2.57; 1.37 2.63 1.99 2.15 2.07 2.14; n.d. n.d. 2.28 n.d. 3.15 n.d.; 2.16 3.91 n.d. 1.93 3.63 2.08; n.d. n.d. n.d. n.d. n.d. n.d.,2.45,2 of 90 (1.59)
KSSDSVLYESANKNSVA,WASTRES,QQYHREPLS,n.d. n.d. n.d. n.d. n.d. n.d.,n.d.,0 of 18
KSSQSVLYESRNKNSVA,WASTRYS,QQYHRLPLS,n.d. 2.72 1.63 1.84 n.d. 1.92,2.03,0 of 18
KSSQSVLYESRNKNSVA,WASTREM,QQYHCLPLS,n.d. n.d. n.d. n.d. n.d. n.d.,n.d.,0 of 18
KMSQSVLYESRNKNSVA,WASTRES,QQYHHLPLS,0.95 0.65 0.86 0.39 0.30 0.84,0.66,2 of 18 (1.31)
KSSQSVLYESGNKNSVA,QASTRAS,EQYHRLPLS,0.98 0.82 0.53 0.63 0.89 0.90,0.79,1 of 18 (2.00)
KSSQSVLYESRNKNSVA,WASTRES,QQYMRLPLT,n.d. n.d. n.d. n.d. n.d. n.d.,n.d.,0 of 18
KMSQSVLYESRNKNSVA,WASTRES,QQYHRLELF,n.d. n.d. n.d. n.d. n.d. n.d.,n.d.,0 of 18
KSSQSVFYESRNKNSVA,FASTRED,QQYQRLPLS,2.31 2.02 2.31 1.98 1.67 2.31,2.10,0 of 18
KSSQSVLYESRNANSVA,GASTRES,QQYHRLPLS,0.11 -0.09 -0.13 -0.07 -0.14 0.20,-0.02,2 of 18 (2.28)
LSSQSVLDESANKNMVA,EASTREC,QQYHRLPLS,1.22 1.87 1.04 1.41 1.32 1.21,1.34,2 of 18 (2.70)
KSRQSVLYEHENKNSVA,WASTRES,QQYHRLPLS,n.d. 2.38 2.13 2.02 n.d. 2.54,2.27,1 of 18 (1.84)
KSSQGVLYESRNKNSVA,DASTRMS,QQYHRLPLS,0.49 0.97 0.70 0.84 1.79 1.53,1.05,0 of 18
KSSTSVWFESRNQNSVA,WASTRES,QQYNRLPLS,0.76 1.19 1.37 1.19 1.29 1.83,1.27,0 of 18
KSSQSVLYEDTNENSVA,WASTREE,QQYHRLPLS,n.d. 1.75 2.01 1.36 2.37 1.69,1.84,1 of 18 (2.39)
KFSQSVLYESRNKNSVA,AASTRCS,QQYHILPLS,0.73 0.52 0.57 0.64 0.76 0.61,0.64,1 of 18 (4.50)
KAPQSVLYTSRNKASVA,WASTVED,QQYHRLPLS,n.d. n.d. n.d. 1.74 n.d. n.d.,1.74,0 of 18
KSSQSVEYESFNKNSVA,NASTRES,QQYHKLPLS,0.72 0.71 0.70 0.47 0.42 0.74,0.63,4 of 18 (2.69)
KRSQSVLYESRNKNSVA,WASTRES,QSYHRLPLS,n.d. 2.16 2.33 n.d. n.d. n.d.,2.24,0 of 18
KSDQSVLYESRNKNSVA,WASTRES,QQYHRLPSS,n.d. n.d. n.d. n.d. n.d. n.d.,n.d.,0 of 18
KVSQSVLYESPNKNSVA,AASTRES,QQYERLPLS,0.61 0.29 0.34 -0.15 0.31 0.59,0.33,0 of 18
KSSQSVLYDSYNKNSVA,WASEREI,QQYHRLPLS,1.28 0.46 1.33 1.79 0.59 0.97,1.07,1 of 18 (2.57)
KSSQSVLYESQNKNSVA,NASTRES,NQYQRLPLS,0.69 1.02 1.03 1.14 0.78 0.91,0.93,1 of 18 (2.62)
KQSDSVLYESRNKNSVA,WASTRES,QQYSRMPLS,1.00 0.86 0.26 0.41 0.69 0.75,0.66,1 of 18 (2.34)
KSSQSVLYESSNKNSVA,NASTRES,QQYHRLPLS,2.97 2.13 1.13 1.26 0.88 3.04,1.90,0 of 18
KNSQSVPYESRNKVSVA,RASTRES,QQYHRLPLS,1.46 1.46 2.63 1.96 2.12 1.93,1.92,2 of 18 (2.31)
KISQSVAYESRNRNMVA,AASTRES,QQYHRLPLS,0.73 0.93 1.84 0.74 0.47 1.72,1.07,0 of 18
KTSQSVLYESREKNSVA,WASTRES,QQYHRLPLS,1.42 1.12 1.22 1.23 2.34 1.98,1.55,0 of 18
KSSQSVLYESRNKNWVA,QASTRES,QQYHRLPLS,n.d. n.d. n.d. n.d. 2.31 1.92,2.11,0 of 18
KVSQSVLYESRNKSSVA,WASTRES,QQYHRIPLS,n.d. 2.93 n.d. n.d. 3.13 n.d.,3.03,1 of 18 (3.60)
KLNQSVLYESRNKNSVA,RASTRES,QRYHRLPLS,n.d. n.d. n.d. 2.97 n.d. n.d.,2.97,0 of 18
KREQSVLYEERNLNSVA,NASTRES,QQYHRLPLS,1.09 1.01 0.86 0.70 1.16 1.34,1.03,3 of 18 (2.69)
KSSQSVGMESRNKNSVA,HASTRES,QQYHRLPLS,0.73 0.44 0.39 0.56 0.71 0.55,0.56,1 of 18 (2.27)
KSSQSWLYESRNKNPVA,AASTRED,QQYVRLPLS,0.81 1.03 0.74 0.34 0.49 0.63,0.67,1 of 18 (2.31)
KSEQSVPYESRNPNSVA,WASTRTS,QQYHRLPLS,1.22 1.36 1.61 1.67 0.93 1.60,1.40,0 of 18
KYSQSVLYESRNKNSVA,MASTRES,QQYHRLPLS,0.67 1.04 0.78 -0.07 1.40 1.19,0.83,0 of 18
LSSRWVLYESRNKNSVA,RASTRES,QQYHRLPLS,n.d. n.d. n.d. n.d. n.d. 0.74,0.74,1 of 18 (1.61)
KSSQSVLYESRNKNNVA,WASTRES,QQYHRWPLS,n.d. n.d. 2.10 n.d. n.d. n.d.,2.10,0 of 18
KSSVSVLSESRNKNSVA,AASTRES,QQYHRLPLS,1.31 0.95 0.84 0.75 0.96 0.98,0.97,1 of 18 (2.32)
KISQSFLYESRNKNSVA,WASTRES,QQYHRLPLS,0.91 0.62 0.44 0.51 0.77 0.33,0.60,0 of 18
KISQSVMYESRNKNSVA,NASTRES,QQYHRLPLS,-0.27 -0.38 -0.29 -0.23 -0.63 -0.19,-0.33,0 of 18

For reference, 6 entries of the list once more:

{"CDR-L1": "KFSQSVLYESRNKNSVA", "CDR-L2": "AASTRCS", "CDR-L3": "QQYHILPLS", "replicates, log10 nM": "0.73 0.52 0.57 0.64 0.76 0.61", "log10 Kd (nM), mean": "0.64", "signal with controls": "1 of 18 (4.50)"}
{"CDR-L1": "LSSQSVLDESANKNMVA", "CDR-L2": "EASTREC", "CDR-L3": "QQYHRLPLS", "replicates, log10 nM": "1.22 1.87 1.04 1.41 1.32 1.21", "log10 Kd (nM), mean": "1.34", "signal with controls": "2 of 18 (2.70)"}
{"CDR-L1": "KLNQSVLYESRNKNSVA", "CDR-L2": "RASTRES", "CDR-L3": "QRYHRLPLS", "replicates, log10 nM": "n.d. n.d. n.d. 2.97 n.d. n.d.", "log10 Kd (nM), mean": "2.97", "signal with controls": "0 of 18"}
{"CDR-L1": "LSSRWVLYESRNKNSVA", "CDR-L2": "RASTRES", "CDR-L3": "QQYHRLPLS", "replicates, log10 nM": "n.d. n.d. n.d. n.d. n.d. 0.74", "log10 Kd (nM), mean": "0.74", "signal with controls": "1 of 18 (1.61)"}
{"CDR-L1": "KPSQSVLYESENENSVA", "CDR-L2": "WASTRES", "CDR-L3": "QQYHRLPLS", "replicates, log10 nM": "n.d. n.d. 2.62 n.d. n.d. 2.57; 1.37 2.63 1.99 2.15 2.07 2.14; n.d. n.d. 2.28 n.d. 3.15 n.d.; 2.16 3.91 n.d. 1.93 3.63 2.08; n.d. n.d. n.d. n.d. n.d. n.d.", "log10 Kd (nM), mean": "2.45", "signal with controls": "2 of 90 (1.59)"}
{"CDR-L1": "KSSQSVLYESQNKNSVA", "CDR-L2": "NASTRES", "CDR-L3": "NQYQRLPLS", "replicates, log10 nM": "0.69 1.02 1.03 1.14 0.78 0.91", "log10 Kd (nM), mean": "0.93", "signal with controls": "1 of 18 (2.62)"}

The parent sequence was in this pool as ten entries: three were never detected, three once, and four in most replicates, with averages from 0.34 to 2.37.
In the paper, a design with two or fewer of six values counts as a poor binder.
As a blank, each scFv also met three strains without target: over all light chain designs, 4% of these pairings were detected, typically at 2.64 and seldom below 1.59. Also given: how often the same scFv was detected with the empty control strains, with their mean in brackets.
The range of this assay differs from that of the first round, and the authors advise against merging the two.
Where one sequence has several entries in the source, the replicates are listed entry by entry, parted by semicolons.